# Patent US9624477B2 (priority 2004, dated 2017)
# Tested on: Pi-omega3Des
# Experiment: Functional characterization of Pi-omega3Des: expression in yeast, feeding with various fatty acids, FAME analysis via GLC
# Details: yeasts transformed with pYes3-Pi-omega3Des, grown in minimal medium in the presence of the fatty acid (300 μM); FAMEs analyzed via GLC; blank vector as control
row,Compound,desaturation of the fed ω-6-fatty acid to the ω-3-fatty acid by Pi-omega3Des
1,eicosadienoic acid,desaturation of C20:2 ω-6-fatty acid to C20:3 ω-3-fatty acid
2,CCCCC/C=C\C/C=C\CCCCCCCC(=O)O,desaturation of linoleic acid (18:2 ω-6-fatty acid) to α-linolenic acid (18:3 ω-3-fatty acid)
3,docosatetraenoic acid,desaturation of docosatetraenoic acid (C22:4 ω-6-fatty acid) to docosapentaenoic acid (C22:5 ω-3-fatty acid)
4,CCCCC/C=C\C/C=C\C/C=C\CCCCC(=O)O,desaturation of γ-linolenic acid (18:3 ω-6-fatty acid) to stearidonic acid (18:4 ω-3-fatty acid)
5,"CCCCC/C=C\C/C=C\C/C=C\C/C=C\CCCC(=O)O [arachidonic acid, reference compound]",desaturation of arachidonic acid (C20:4 ω-6-fatty acid) to eicosapentaenoic acid (C20:5 ω-3-fatty acid)
6,dihomo-γ-linolenic acid,desaturation of C20:3 ω-6-fatty acid to C20:4 ω-3-fatty acid
